In publication PMC3503517 (Chembiochem : a European journal of chemical biology, 2011):

Molecular target: T1, human DCTPP1 (Homo sapiens, UniProt Q9H773)
T1 sequence (Q9H773 1-170): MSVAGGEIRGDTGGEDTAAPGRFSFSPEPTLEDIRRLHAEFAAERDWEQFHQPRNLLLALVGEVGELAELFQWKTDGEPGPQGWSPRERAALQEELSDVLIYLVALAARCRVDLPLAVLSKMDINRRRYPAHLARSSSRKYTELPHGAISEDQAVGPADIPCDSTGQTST
Assay type: biochemical
Settings: read-out: Ki ± SE

CC(C)[C@]12O[C@H]1[C@@H]1O[C@]13[C@]1(O[C@H]1CC1C4=C(CC[C@@]13C)C(=O)OC4)[C@H]2O (stereo partly drawn) [compound 7, 14-α-triptolide]
Ki: 194 ± 28 µM
